Laboratory results as given in IntAct's records for PubMed 25203322.

B1: Zinc finger protein SNAI1 (Homo sapiens), O95863 (parent)
chain: MPRSFLVRKPSDPNRKPNYSELQDSNPEFTFQQPYDQAHLLAAIPPPEILNPTASLPMLIWDSVLAPQAQPIAWASLRLQESPRVAELTSLSDEDSGKGSQPPSPPSPAPSSFSSTSVSSLEAEAYAAFPGLGQVPKQLAQLSEAKDLQARKAFNCKYCNKEYLSLGALKMHIRSHTLPCVCGTCGKAFSRPWLLQGHVRTHTGEKPFSCPHCSRAFADRSNLRAHLQTHSDVKKYQCQACARTFSRMSLLHKHQESGCSGCPR
partner: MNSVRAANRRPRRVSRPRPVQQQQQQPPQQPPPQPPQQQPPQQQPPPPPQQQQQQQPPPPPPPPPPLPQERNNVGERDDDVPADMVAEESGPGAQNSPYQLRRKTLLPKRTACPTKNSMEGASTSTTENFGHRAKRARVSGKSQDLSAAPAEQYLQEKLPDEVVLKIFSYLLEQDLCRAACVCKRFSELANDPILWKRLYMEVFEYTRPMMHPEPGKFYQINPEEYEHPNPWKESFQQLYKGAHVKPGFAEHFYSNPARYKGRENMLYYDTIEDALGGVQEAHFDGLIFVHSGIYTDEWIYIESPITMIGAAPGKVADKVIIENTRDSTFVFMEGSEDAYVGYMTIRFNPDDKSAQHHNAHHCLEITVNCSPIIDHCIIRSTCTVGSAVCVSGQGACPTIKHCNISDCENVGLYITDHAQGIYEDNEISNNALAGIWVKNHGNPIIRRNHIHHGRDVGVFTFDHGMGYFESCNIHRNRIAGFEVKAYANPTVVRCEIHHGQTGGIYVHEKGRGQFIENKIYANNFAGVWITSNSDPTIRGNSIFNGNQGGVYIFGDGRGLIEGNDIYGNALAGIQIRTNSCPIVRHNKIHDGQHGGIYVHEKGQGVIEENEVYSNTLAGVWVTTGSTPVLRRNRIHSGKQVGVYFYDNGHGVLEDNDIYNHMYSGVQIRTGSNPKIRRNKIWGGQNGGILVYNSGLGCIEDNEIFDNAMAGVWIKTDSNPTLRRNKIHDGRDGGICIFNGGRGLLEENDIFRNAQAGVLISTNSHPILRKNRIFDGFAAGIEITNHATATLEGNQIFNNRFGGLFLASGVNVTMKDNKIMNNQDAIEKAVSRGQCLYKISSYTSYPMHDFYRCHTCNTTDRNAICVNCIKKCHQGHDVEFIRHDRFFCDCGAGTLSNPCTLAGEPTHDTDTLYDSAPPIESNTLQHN

Variants of: B1
Settings: with fbx11_human FBXO11, Q86XK2

Row | Variant | effect of a mutation on the interaction
1 | MPRSFAVRKPSDPNRKPNYSELQDSNPEFTFQQPYDQAHLLAAIPPPEILNPTASLPMLIWDSVLAPQAQPIAWASLRLQESPRVAELTSLSDEDSGKGSQPPSPPSPAPSSFSSTSVSSLEAEAYAAFPGLGQVPKQLAQLSEAKDLQARKAFNCKYCNKEYLSLGALKMHIRSHTLPCVCGTCGKAFSRPWLLQGHVRTHTGEKPFSCPHCSRAFADRSNLRAHLQTHSDVKKYQCQACARTFSRMSLLHKHQESGCSGCPR [L6A] | disrupting interaction strength
2 | MPRSFLVAKPSDPNRKPNYSELQDSNPEFTFQQPYDQAHLLAAIPPPEILNPTASLPMLIWDSVLAPQAQPIAWASLRLQESPRVAELTSLSDEDSGKGSQPPSPPSPAPSSFSSTSVSSLEAEAYAAFPGLGQVPKQLAQLSEAKDLQARKAFNCKYCNKEYLSLGALKMHIRSHTLPCVCGTCGKAFSRPWLLQGHVRTHTGEKPFSCPHCSRAFADRSNLRAHLQTHSDVKKYQCQACARTFSRMSLLHKHQESGCSGCPR [R8A] | disrupting interaction strength
3 | MPRSFLVRKPADPNRKPNYSELQDSNPEFTFQQPYDQAHLLAAIPPPEILNPTASLPMLIWDSVLAPQAQPIAWASLRLQESPRVAELTSLSDEDSGKGSQPPSPPSPAPSSFSSTSVSSLEAEAYAAFPGLGQVPKQLAQLSEAKDLQARKAFNCKYCNKEYLSLGALKMHIRSHTLPCVCGTCGKAFSRPWLLQGHVRTHTGEKPFSCPHCSRAFADRSNLRAHLQTHSDVKKYQCQACARTFSRMSLLHKHQESGCSGCPR [S11A] | disrupting interaction strength

Second part, the variant after the results:

Row | effect of a mutation on the interaction | Variant
4 | increasing interaction strength | MPRSFLVRKPEDPNRKPNYSELQDSNPEFTFQQPYDQAHLLAAIPPPEILNPTASLPMLIWDSVLAPQAQPIAWASLRLQESPRVAELTSLSDEDSGKGSQPPSPPSPAPSSFSSTSVSSLEAEAYAAFPGLGQVPKQLAQLSEAKDLQARKAFNCKYCNKEYLSLGALKMHIRSHTLPCVCGTCGKAFSRPWLLQGHVRTHTGEKPFSCPHCSRAFADRSNLRAHLQTHSDVKKYQCQACARTFSRMSLLHKHQESGCSGCPR [S11E]
5 | disrupting interaction strength | MPRSFLVRKPVDPNRKPNYSELQDSNPEFTFQQPYDQAHLLAAIPPPEILNPTASLPMLIWDSVLAPQAQPIAWASLRLQESPRVAELTSLSDEDSGKGSQPPSPPSPAPSSFSSTSVSSLEAEAYAAFPGLGQVPKQLAQLSEAKDLQARKAFNCKYCNKEYLSLGALKMHIRSHTLPCVCGTCGKAFSRPWLLQGHVRTHTGEKPFSCPHCSRAFADRSNLRAHLQTHSDVKKYQCQACARTFSRMSLLHKHQESGCSGCPR [S11V]
